Test [1] addresses Recombinant soluble human CR1 (sCR1) (human) (UniProt P17927). As to the kind of experiment: SPR; BIAcore 3000, multiple cycle; CR1 protein amine-coupled on CM5 (sCR1 9,500 RU, CCP22-30 1,500 RU, CCP24-25 1,000 RU); C1q injected at 20 µl/min in 50 mM TEA, 150 mM NaCl, 1 mM CaCl2, 0.005% surfactant P20, pH 7.4; global 1:1 Langmuir fit; apparent KD = kd/ka. On the technique in general: In SPR one partner is held on a chip, and binding of the other changes the refractive index at the surface.

Amino acid sequences for entries named in this document (tags omitted). Residues count along the entry.
UniProt P17927, 42-2039: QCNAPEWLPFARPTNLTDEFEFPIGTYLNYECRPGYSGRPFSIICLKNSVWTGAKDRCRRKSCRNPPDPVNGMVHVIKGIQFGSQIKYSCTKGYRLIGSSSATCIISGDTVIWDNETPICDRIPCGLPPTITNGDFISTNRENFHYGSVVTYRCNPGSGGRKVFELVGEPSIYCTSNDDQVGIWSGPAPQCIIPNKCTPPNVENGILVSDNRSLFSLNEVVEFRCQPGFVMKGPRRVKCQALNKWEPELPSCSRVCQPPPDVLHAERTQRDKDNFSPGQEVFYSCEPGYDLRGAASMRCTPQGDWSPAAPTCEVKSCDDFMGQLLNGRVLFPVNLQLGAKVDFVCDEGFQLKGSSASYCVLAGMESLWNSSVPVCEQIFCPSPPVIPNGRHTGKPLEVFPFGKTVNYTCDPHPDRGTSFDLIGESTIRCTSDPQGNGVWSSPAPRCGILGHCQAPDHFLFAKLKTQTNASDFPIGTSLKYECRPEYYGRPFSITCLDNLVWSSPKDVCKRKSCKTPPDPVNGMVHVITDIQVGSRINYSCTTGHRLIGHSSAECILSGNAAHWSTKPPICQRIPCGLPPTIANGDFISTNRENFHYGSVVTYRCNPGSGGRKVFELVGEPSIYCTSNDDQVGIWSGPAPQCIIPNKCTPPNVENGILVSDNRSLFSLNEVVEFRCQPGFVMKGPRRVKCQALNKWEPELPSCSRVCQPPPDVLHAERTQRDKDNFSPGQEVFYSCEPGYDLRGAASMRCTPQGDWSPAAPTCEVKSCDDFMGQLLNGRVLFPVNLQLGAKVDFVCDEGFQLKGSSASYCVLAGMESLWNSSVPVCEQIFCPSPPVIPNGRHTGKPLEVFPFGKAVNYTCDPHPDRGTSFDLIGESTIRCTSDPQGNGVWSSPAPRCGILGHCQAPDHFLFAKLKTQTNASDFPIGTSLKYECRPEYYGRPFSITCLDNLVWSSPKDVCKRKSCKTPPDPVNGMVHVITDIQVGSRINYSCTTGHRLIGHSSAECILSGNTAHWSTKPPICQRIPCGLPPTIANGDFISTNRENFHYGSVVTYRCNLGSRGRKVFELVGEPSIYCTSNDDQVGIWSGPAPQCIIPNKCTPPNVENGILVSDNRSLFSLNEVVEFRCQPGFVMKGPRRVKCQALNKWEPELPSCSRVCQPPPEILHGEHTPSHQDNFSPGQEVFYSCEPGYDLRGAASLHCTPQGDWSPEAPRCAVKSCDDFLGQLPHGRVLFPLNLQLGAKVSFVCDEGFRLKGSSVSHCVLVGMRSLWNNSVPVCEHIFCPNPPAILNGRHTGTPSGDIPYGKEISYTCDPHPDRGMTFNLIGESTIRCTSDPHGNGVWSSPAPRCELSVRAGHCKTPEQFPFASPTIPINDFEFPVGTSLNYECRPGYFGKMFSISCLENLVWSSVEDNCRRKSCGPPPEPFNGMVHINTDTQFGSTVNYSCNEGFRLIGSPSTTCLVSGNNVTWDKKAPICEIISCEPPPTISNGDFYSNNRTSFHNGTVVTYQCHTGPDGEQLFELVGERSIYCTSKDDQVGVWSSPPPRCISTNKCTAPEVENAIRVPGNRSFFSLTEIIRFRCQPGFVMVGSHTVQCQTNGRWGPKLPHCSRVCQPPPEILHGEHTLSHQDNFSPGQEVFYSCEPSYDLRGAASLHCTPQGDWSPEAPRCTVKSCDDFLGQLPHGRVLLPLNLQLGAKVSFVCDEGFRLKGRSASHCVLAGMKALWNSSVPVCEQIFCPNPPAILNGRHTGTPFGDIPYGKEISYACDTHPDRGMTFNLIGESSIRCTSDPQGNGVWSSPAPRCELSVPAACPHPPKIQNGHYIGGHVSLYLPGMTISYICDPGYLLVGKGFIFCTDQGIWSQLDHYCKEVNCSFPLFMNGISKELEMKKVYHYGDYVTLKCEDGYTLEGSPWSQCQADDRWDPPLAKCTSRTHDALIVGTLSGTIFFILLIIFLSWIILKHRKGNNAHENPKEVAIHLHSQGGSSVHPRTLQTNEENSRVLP
UniProt P02745, 23-245: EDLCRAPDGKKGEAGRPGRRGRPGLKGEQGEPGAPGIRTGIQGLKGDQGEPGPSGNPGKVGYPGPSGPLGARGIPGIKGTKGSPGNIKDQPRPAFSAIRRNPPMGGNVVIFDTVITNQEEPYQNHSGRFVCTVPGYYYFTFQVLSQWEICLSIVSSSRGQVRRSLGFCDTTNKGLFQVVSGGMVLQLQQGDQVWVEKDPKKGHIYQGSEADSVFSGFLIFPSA
C1q, UniProt P02746, 28-253: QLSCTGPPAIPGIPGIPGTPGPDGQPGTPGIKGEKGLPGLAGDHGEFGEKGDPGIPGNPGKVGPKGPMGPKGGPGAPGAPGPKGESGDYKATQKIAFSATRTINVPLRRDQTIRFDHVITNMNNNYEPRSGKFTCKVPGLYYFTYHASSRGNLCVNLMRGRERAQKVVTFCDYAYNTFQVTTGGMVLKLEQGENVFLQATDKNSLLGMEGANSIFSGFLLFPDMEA
C1q, UniProt P02747, 29-245: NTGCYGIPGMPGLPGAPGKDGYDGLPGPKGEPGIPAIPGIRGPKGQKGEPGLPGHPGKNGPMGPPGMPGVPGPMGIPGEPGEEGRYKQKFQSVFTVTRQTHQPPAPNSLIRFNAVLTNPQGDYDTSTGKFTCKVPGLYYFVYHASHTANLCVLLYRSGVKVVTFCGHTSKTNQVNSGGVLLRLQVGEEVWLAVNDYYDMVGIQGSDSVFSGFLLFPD

The target of test [2] is CR1 CCP22-30 His6 fragment (insect cells) (human). Described as above.
For test [3], the target named is CR1 bimodular fragment CCP25-26 (human). As to the kind of experiment: ELISA; solid-phase binding assay; plates coated with 3.4 pmol of each CR1 variant; C1q 10 µg/ml in PBS-T, 90 min, room temperature; detected with anti-C1q rabbit polyclonal and HRP anti-rabbit antibody. For orientation: In an ELISA, binding on a coated surface is turned into a signal by an enzyme label.

With “C1q (from UniProt P02745 23-245; P02746 28-253; P02747 29-245) (complex)”, the Kd amounted to 0.49 nM in test [1] and 0.26 nM in test [2]. The C1q binding (%) in test [3] turned out to be 24%.

The values above are taken from article PMC5845983.
